Measurements as given in PubChem BioAssay AID540253 (National Center for Advancing Translational Sciences (NCATS), 2011).
The entries are a selection whose mix differs from that of the whole data set. Results filed as inconclusive are left out. Activity calls are given as the source filed them. The call rests on the fitted dose curve.

Biological target: Snurportin-1 (Homo sapiens) + GTP-binding nuclear protein Ran (Homo sapiens) + Importin subunit beta-1 (Homo sapiens) (UniProt O95149+P62826+Q14974)
Assay: qHTS Assay for Inhibitors of RanGTP induced Rango (Ran-regulated importin-beta cargo) - Importin beta complex dissociation; further: % of control where 0% means no effect; nearly all actives have a fitted effect of over 45% in size
Conditions: Biochemical FRET Rango-importin beta; at 46.1 µM (top of the series)

Row | Compound | activity change, negative = inhibition
1 | CCC(=O)N(c1ccccc1)C1(COC)CCN(CCc2cccs2)CC1 | inactive: 0.239%
2 | CCC(=O)N(c1ccccc1)C1(COC)CCN(CCn2nnn(CC)c2=O)CC1 | inactive: -9.11%
